## Measured affinities in a library of Ab-14 light chain variants

The measurements come from Engelhart et al. 2022 (doi:10.1038/s41597-022-01779-4) through the FLAb antibody collection.

Antigen: PDVDLGDISGINAS, a 14-residue peptide of the SARS-CoV-2 spike HR2 region.

Parent: Ab-14, a human scFv built as VH, three GGGGS repeats, VL. Only the CDRs of the light chain vary.
VH: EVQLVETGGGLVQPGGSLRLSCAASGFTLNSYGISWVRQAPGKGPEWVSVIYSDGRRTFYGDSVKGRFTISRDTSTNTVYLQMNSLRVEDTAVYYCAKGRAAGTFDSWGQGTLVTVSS
VL: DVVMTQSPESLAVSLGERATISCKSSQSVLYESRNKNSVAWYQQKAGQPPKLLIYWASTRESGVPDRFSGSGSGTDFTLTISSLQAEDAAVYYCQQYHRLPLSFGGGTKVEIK

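Phage display of a naive human antibody library on the peptide gave the parent. Variants in AAYL50 differ from the parent at up to three CDR positions; double and triple changes were sampled at random. The assay is AlphaSeq: two haploid yeast populations carry antibody and antigen on their surface. Binding brings cells together so that they mate, and sequencing counts the barcode pairs among the diploids. The ratio of observed to expected reads was calibrated, replicate by replicate, on BCL2-family standards whose Kd was known from biolayer interferometry. Each pool was mated in three replicate cultures.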

Positions count from residue 1 of the parent VL; N35K puts K in place of N.
Every variant below is changed at R99 of the VL (sequential numbering).
Each Kd is an estimate from the mating assay, the geometric mean of the replicates in which the pair was seen; lower is stronger.
"nd" marks a missing value. The strain was present, yet no cells mated with the target were sequenced in any replicate, which points to weak or no binding.
As a blank, each scFv also met three strains without target: over library AAYL50, 18% of these pairings were detected, typically at 15 µM and seldom below 970 nM.

For N35K Q96T R99Y, the assay gave 44 µM (1 of 3 replicates). For W56F Q96A R99G, the assay gave 27 µM (2 of 3 replicates). Variant S28H R60Y R99S gave nd (0 of 3 replicates). Variant K36I A57P R99F showed nd (0 of 3 replicates). With W56E T59K R99V the result was 4.3 nM (3 of 3 replicates). With T59P R99N the result was nd (0 of 3 replicates). With Q27H W56D R99V the result was 1.4 nM (3 of 3 replicates).

Variant S25N W56G R99M gave 390 pM (3 of 3 replicates). Variant A40E R99Q P101D gave 4.0 µM (1 of 3 replicates). With E61F R99D P101D the result was nd (0 of 3 replicates). For S33C R99S P101I, the assay gave nd (0 of 3 replicates). Variant A57L Q95E R99C gave 110 µM (3 of 3 replicates). Variant V39D R99S showed 19 µM (3 of 3 replicates). With V39T Q95L R99Y the result was 39 µM (2 of 3 replicates).

Variant E61L Q96T R99P gave 140 nM (3 of 3 replicates). With S33A A40N R99I the result was nd (0 of 3 replicates). Variant V39P H98E R99Q showed 32 µM (3 of 3 replicates). Variant Q96R Y97C R99Y showed 150 µM (1 of 3 replicates). With S58E R99D the result was 100 nM (3 of 3 replicates). Variant Y31F Y97R R99H showed 370 nM (3 of 3 replicates). With S28D W56Y R99K the result was nd (0 of 3 replicates).

With N35Y V39D R99V the result was nd (0 of 3 replicates). Variant N35H R99E L102D showed 28 nM (3 of 3 replicates). For S38Y W56G R99T, the assay gave nd (0 of 3 replicates). For V29L L30F R99P, the assay gave 2.1 µM (1 of 3 replicates). With A57K R99C S103F the result was nd (0 of 3 replicates). Variant K36L Q96R R99K gave 1.8 µM (3 of 3 replicates). With R60C R99E S103M the result was nd (0 of 3 replicates).

Variant L30N T59A R99Y showed nd (0 of 3 replicates). Variant R99S gave 32 nM (3 of 3 replicates). For K36G A57S R99L, the assay gave 910 nM (3 of 3 replicates). Variant N37T A40I R99M showed nd (0 of 3 replicates). Variant Q27F W56L R99Q showed 270 µM (2 of 3 replicates). Variant Q27I Y97G R99S gave 85 µM (3 of 3 replicates). With S28C R99Q L100E the result was 260 nM (1 of 3 replicates).

The first 4 variants above that were never detected:

S28H R60Y R99S: nd (0 of 3 replicates).
K36I A57P R99F: nd (0 of 3 replicates).
T59P R99N: nd (0 of 3 replicates).
E61F R99D P101D: nd (0 of 3 replicates).

For reference, the parent read 4.4 nM as the reference entry and 48 nM as a member of this library.